Data on four molecules can be found in ChEMBL document CHEMBL1158362, “4-Phenoxybutoxy-substituted heterocycles--a structure-activity relationship study of blockers of the lymphocyte potassium channel Kv1.3” (Eur J Med Chem, 2009).

The chains behind the UniProt entries cited, without tags or fusion partners.
UniProt P22001, whole entry: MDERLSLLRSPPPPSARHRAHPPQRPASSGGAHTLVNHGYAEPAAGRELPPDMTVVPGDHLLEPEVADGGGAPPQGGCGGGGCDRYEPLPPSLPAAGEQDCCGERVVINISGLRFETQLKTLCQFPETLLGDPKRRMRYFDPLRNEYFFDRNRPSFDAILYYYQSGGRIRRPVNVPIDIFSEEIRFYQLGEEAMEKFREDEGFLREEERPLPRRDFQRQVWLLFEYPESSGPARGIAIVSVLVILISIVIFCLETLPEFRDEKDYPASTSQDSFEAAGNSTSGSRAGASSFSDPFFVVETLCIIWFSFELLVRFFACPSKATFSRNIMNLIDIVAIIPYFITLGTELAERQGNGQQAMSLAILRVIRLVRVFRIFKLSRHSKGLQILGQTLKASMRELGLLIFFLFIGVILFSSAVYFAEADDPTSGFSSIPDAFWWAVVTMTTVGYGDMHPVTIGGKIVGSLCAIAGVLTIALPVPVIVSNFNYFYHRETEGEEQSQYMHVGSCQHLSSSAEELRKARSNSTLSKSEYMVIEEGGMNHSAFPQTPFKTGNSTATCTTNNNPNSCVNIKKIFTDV
UniProt P22460, whole entry: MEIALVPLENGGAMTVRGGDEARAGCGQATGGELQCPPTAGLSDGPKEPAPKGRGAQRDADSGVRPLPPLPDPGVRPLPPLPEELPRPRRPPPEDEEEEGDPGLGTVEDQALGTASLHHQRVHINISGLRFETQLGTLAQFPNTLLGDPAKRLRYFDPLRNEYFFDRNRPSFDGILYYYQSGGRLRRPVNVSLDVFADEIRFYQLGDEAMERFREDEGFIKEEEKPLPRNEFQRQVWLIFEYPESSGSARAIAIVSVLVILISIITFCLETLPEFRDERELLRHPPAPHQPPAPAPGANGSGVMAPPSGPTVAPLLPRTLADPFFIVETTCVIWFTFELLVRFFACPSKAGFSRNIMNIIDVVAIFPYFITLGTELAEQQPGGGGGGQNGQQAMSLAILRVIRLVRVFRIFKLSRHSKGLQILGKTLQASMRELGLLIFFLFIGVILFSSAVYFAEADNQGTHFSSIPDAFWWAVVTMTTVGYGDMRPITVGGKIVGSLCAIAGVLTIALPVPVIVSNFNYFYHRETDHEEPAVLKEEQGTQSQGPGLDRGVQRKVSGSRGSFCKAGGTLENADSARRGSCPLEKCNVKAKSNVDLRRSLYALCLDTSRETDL

The target of assay [1] is Potassium voltage-gated channel subfamily A member 3 (Homo sapiens, UniProt P22001). The assay is described as follows: Inhibition of Kv1.3 potassium channel expressed in mouse L929 cells by whole cell patch clamp. Type of assay: cell-based. In outline:
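Currents were evoked by 500 ms pulses to 40 mV every 45 s. Each compound was run three times at 4–5 concentrations, each on a different cell. IC50 came from a Hill fit of the reduction in area under the current curve.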
(The patch-clamp technique gives a direct electrical read-out from membranes.)

For assay [2], the target named is Potassium voltage-gated channel subfamily A member 5 (Homo sapiens) (UniProt P22460). As to the kind of experiment: Inhibition of Kv1.5 potassium channel by whole cell patch clamp. The essentials: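 Currents were recorded by whole-cell patch clamp from MEL-C88 cells. Each compound was tested three times at 4–5 concentrations, each experiment on a different cell. IC50 came from a Hill-equation fit of the reduction in area under the current curve.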

As usually defined, the IC50 is the midpoint of a concentration-inhibition curve. A low value points to greater potency.

`COc1ccc2c(OCCCCOc3ccccc3)c3ccoc3nc2c1OC` registered an IC50 in assay [1] of 200 nM. `c1ccc(OCCCCOc2cccc3cnccc23)cc1`: the IC50 came to 0.52 µM in assay [2] and 520 nM in assay [1]. `Cc1cc(=O)c2c(OCCCCOc3ccccc3)c3c(cc2o1)OCO3` had an IC50 in assay [1] of 5000 nM. Turning to `Cc1cc(=O)c2c(OCCCCOc3ccccc3)c3ccc(=O)oc3cc2o1`, the IC50 in assay [2] stood at 6 µM; in assay [1] it was 6000 nM.
